# Reference: patent US11161839B2, “2-quinolone derived inhibitors of BCL6” (Cancer Research Technology Limited, priority 2017, dated 2021)
# Target: human BCL6 BTB domain (Trx-6xHis-BCL6) (Homo sapiens (Human), UniProt P41182)
# Assay: HTRF in vitro assay (BCL6 BTB domain / BCOR-AF633 peptide)
# Format: binding
structure (smiles),measurement,setting,value
CC(CO)Nc1nc(=O)[nH]c2ccc(Nc3ccnc(Cl)c3C#N)cc12 (centres unmarked),HTRF pIC50,"further generated data (Table 1b), 1 nM Trx-6xHis-BCL6, 0.5 nM anti-6xHis-Terbium cryptate",6.35
same,HTRF pIC50,"initially generated data (Table 1a), 10 nM Trx-6xHis-BCL6, 1 nM anti-6xHis-Terbium cryptate",6.10
